Literature values, collected in patent US9999655B2, “Use of MKS inhibitor peptide-containing compositions for treating non-small cell lung cancer with same” (Moerae Matrix, Inc., priority 2015, dated 2018).

Tested on: advanced NSCLC
Conditions: patients with advanced NSCLC; P=0.04; cited from earlier work

For Cetuximab, the overall survival is listed as 11.3 months.
